The numbers were not newly measured in patent US12338283B2, “Methods for targeting the immune checkpoint PD1 pathway for treating pulmonary fibrosis” (CEDARS-SINAI MEDICAL CENTER, priority 2017, dated 2025), which cites them from elsewhere.

The target of this series is B7-1. The following applies: read-out: affinity of PD-L1 and B7-1 interaction; surface plasmon resonance; cited from earlier work.

“PD-L1: programmed cell death 1 ligand 1 protein”: the Kd was 1.7 µM.
